Results on 2 molecules are retold here after patent US6355616B1, “Derivative compounds derived from or based on bactericidal/permeability-increasing protein” (priority 1999, dated 2002).

The test system of one data set is MDCK and CACO-2 cells. It is filed as in vitro ADME. As to the method: For these experiments, peptide-based constructs are screened for potential oral absorption in in vitro screening assays using MDCK and/or CACO-2 cells. Briefly, cultured monolayers of Madin-Derby canine kidney epithelial (MDCK) cells (ATCC Accession No. CCL-34) and/or CACO-2 (Human colon carcinoma) cells [Audus, K. L., et al. Phar. Res., 7:435-451 (1990) are grown upon collagen-coated, permeable-filter supports (Becton Dickinson, Mountain View, Calif.). The cells are grown to confluency and allowed to differentiate (e.g., about 3 days for MDCK cells or about 21 days for CACO-2 cells). The integrity of the monolayers is determined by measuring the transepithelial resistance. […] The transepithelial transport of the construct is measured by quantitative HPLC analysis of the incubation media on the basolateral side of the cells (forward transport). […] In addition, the efflux of the construct is measured by quantitative HLPC analysis of the incubation media on the apical side of the cells. […]
Following the days post seeding, the cells are ready for transport experiments. […]
Forward transport is calculated as the percentage of peptide-based construct in the basolateral chamber (determined by the area under the HPLC peak) to the initial concentration of the apical solution (initial donor concentration of ˜100 μg/mL). […]

The next data set relates to Candida albicans SLU-1. Description: Radial diffusion assay. It counts as cell-based. The note with it: 30 mm^2 area of growth inhibition, calculated by PROBIT analysis. As to the method:
In the radial diffusion assay procedures, the CA-1 cultures and derivatized peptide solutions were prepared as in the broth microdilution assay procedure described above, i.e., CA-1 was grown to exponential phase in SDB. Ten (10) mL of molten underlayer agarose comprising 3% Sabouraud Dextrose broth, 1% agarose (Pharmacia, Piscataway, N.J.), 0.02% Tween 20, and 10 mM sodium phosphate at pH 7.4, was added to polystyrene tubes and maintained in a 56° C. water bath until the addition of yeast. Tubes were cooled to approximately 45° C., yeast were added to give a final concentration of 1×10^6 CFU/mL, and the tubes were mixed again by inverting. The contents were poured into leveled, square petri dishes and distributed evenly. […]
Clear zones of growth inhibition around each well were measured with calipers. The actual area of growth inhibition (mm^2) was calculated by subtracting the area of the well. Table II below sets out the results of the radial diffusion assays for a series of tested peptide-based constructs in terms of the number of picomoles (pmol) of compound required to establish a 30 mm^2 area of growth inhibition of Candida albicans SLU-1 calculated by PROBIT analysis (e.g., calculated from regression of the linear portion of log-concentration dose-response curve, log pmol/well vs. net area of inhibition).

Data set [1] deals with Candida albicans designated CA-1, Strain SLU-1. It counts as cell-based. The note with it: for Broth Microdilution (MIC values in μg/mL C. albicans SLU1): designated CA-1, Strain SLU-1, 24 h. As to the method: In each broth microdilution assay screening procedure, a colony of Candida albicans designated CA-1, Strain SLU-1 that was received from the laboratories of G. Matuschak and A. Lechner, St. Louis University Hospital, St. Louis, Mo., where the strain was maintained, was inoculated into a tube containing 5 mL Sabouraud Dextrose broth (2% dextrose, 1% neopeptone) and incubated at 37° C. with shaking. The overnight culture was diluted 1:50 into 5 ml of fresh broth and incubated for 3 hours at 37° C. to exponential phase growth. Organisms were pelleted by centrifugation in a Beckman J-6M centrifuge for 5 minutes at 3000 rpm (1500×g) and the pellets were resuspended in 5 mL phosphate buffered saline (PBS) and the optical density (OD) at 570 nm was determined. On the basis of the determination that one OD unit equals 3×10^7 colony forming units/mL (CFU/mL), yeast cells were diluted to 5×10^3 CFU/mL in Sabouraud Dextrose broth (SBD).
Derivatized peptide sequences based on Domain III of BPI to be screened which were originally constituted in Dulbecco's-PBS, were two-fold serially diluted in SDB starting from a concentration of 128 μg/mL. Equal volumes (100 μL) of yeast suspension as prepared above and derivatized peptide solution were added to wells of a 96-well sterile, flat bottom, non-pyrogenic tissue culture microtiter plate (Costar, Cambridge, Mass.) to reach a final volume of 200 μL/well. The plate was incubated on a shaker at 37° C. for 24 hours. All assays were performed in triplicate. Following the incubation period, plates were read in an ELISA plate reader at 595 nm wavelength to determine the minimum inhibitory concentration (MIC), i.e., the lowest concentration required to reduce the optical density at 595 nm to below 0.1 OD.
Background: Dilution methods test growth across graded concentrations, often in twofold steps.

`CC[C@@H](C)[C@@H](NC(=O)[C@@H](CC(C)C)NC(=O)[C@@H](Cc1c[nH]c2ccccc12)NC(=O)[C@H](N)CCCCN)C(=O)N[C@H](CCC(N)=O)C(=O)N[C@H](CC(C)C)C(=O)N[C@H](Cc1ccccc1)C(=O)N[C@H](Cc1c[nH]cn1)C(=O)N[C@H](CCCCN)C(=O)N[C@H](CCCCN)C(N)=O` [XMP.365]: in the data set on MDCK and CACO-2 cells, the “mobility in epithelial cell screening assays” value was in the range of 0.05 to 0.06%. Besides, the “Radial Diffusion (pmol to achieve 30 mm^2 zone C. albicans SLU1)” value with Candida albicans SLU-1 was 285 pmol. For the same molecule, the “MIC range against Staphylococcus aureus” value in the data set on Staphylococcus aureus lay in the range of 4 to 8 µg/mL. Further, the “MIC range against Candida albicans” value in data set [1] (designated CA-1, Strain SLU-1) was 0.16 to 2 µg/mL. Moreover, the “Broth Microdilution (MIC values in μg/mL C. albicans SLU1)” value in data set [1] worked out at 2 µg/mL.
With `CC[C@@H](C)[C@@H](NC(=O)[C@@H](CC(C)C)NC(=O)[C@@H](Cc1c[nH]c2ccccc12)NC(=O)[C@@H](CCCCN)NC(C)=O)C(=O)N[C@H](CCC(N)=O)C(=O)N[C@H](CC(C)C)C(=O)N[C@H](Cc1ccccc1)C(=O)N[C@H](Cc1c[nH]cn1)C(=O)N[C@H](CCCCN)C(=O)N[C@H](CCCCN)C(N)=O` [XMP.366], the “Radial Diffusion (pmol to achieve 30 mm^2 zone C. albicans SLU1)” value with Candida albicans SLU-1 is 352 pmol. Moreover, the “Broth Microdilution (MIC values in μg/mL C. albicans SLU1)” value in data set [1] came out at 4 µg/mL.
